The values below come from patent US20100287663A1, “METHODS FOR PRODUCING PLANTS WITH ALTERED LEVELS OF SULPHATED SECONDARY METABOLITES” (PLANT BIOSCIENCE LIMITED, priority 2009, published 2010).

Data set [1] has as its target Arabidopsis thaliana APS kinase Apk1 (At2g14750), recombinant, without target peptide (Arabidopsis thaliana, UniProt Q43295). The conditions noted are these: Apk1, expressed in E. coli, purified.
In data set [2] the target is Arabidopsis thaliana APS kinase Apk2 (At4g39940), recombinant, without target peptide (Arabidopsis thaliana, UniProt O49196). Particulars: Apk2, expressed in E. coli, purified.
Data set [3] deals with Arabidopsis thaliana APS kinase Apk3 (At3g03900), recombinant (Arabidopsis thaliana, UniProt Q9SRW7). Particulars: Apk3, expressed in E. coli, purified.
The target in data set [4] is Arabidopsis thaliana APS kinase Apk4 (At5g67520), recombinant, without target peptide (Arabidopsis thaliana, UniProt Q84JF0). The conditions noted are these: Apk4, expressed in E. coli, purified.
Substrate in data set [5]: Nc1ncnc2c1ncn2[C@@H]1O[C@H](COP(=O)(O)OS(=O)(=O)O)[C@@H](O)[C@H]1O
Put plainly: purified protein, by the assay type. The conditions noted are these: 28.0 °C.

Take `Nc1ncnc2c1ncn2[C@@H]1O[C@H](COP(=O)(O)OS(=O)(=O)O)[C@@H](O)[C@H]1O` [APS, adenosine-5′-phosphosulphate]: the Vmax is listed as 20.1 units mg units mg protein^−1 in data set [1], 10.6 units mg units mg protein^−1 in data set [2], 12.4 units mg units mg protein^−1 in data set [3] and 12.7 units mg units mg protein^−1 in data set [4].

B1: Arabidopsis thaliana APS kinase Apk3 (At3g03900), recombinant (Arabidopsis thaliana) (protein)
chain: MSTVGNSTNIFWQESPIGKTERQKLLNQKGCVVWITGLSGSGKSTLACSLSRELNNRGKLSYILDGDNLRHGLNKDLGFKAEDRVENIRRVGEVAKLFADAGLICIASLISPYRKDRDACREMIQNSSFIEVFMNMSLQLCEARDPKGLYKLARAGKIKGFTGIDDPYESPLNCEIELKEKEGECPSPVAMAEEVISYLEDKGFLQNE
Consider B1, for which the Km in data set [5] is given as 7.4 μM μM.

B2: Arabidopsis thaliana APS kinase Apk1 (At2g14750), recombinant, without target peptide (Arabidopsis thaliana) (protein)
chain: VSMDGSQTLSHNKNGSIPEVKSINGHTGQKQGPLSTVGNSTNIKWHECSVEKVDRQRLLDQKGCVIWVTGLSGSGKSTLACALNQMLYQKGKLCYILDGDNVRHGLNRDLSFKAEDRAENIRRVGEVAKLFADAGIICIASLISPYRTDRDACRSLLPEGDFVEVFMDVPLSVCEARDPKGLYKLARAGKIKGFTGIDDPYEPPLNCEISLGREGGTSPIEMAEKVVGYLDNKGYLQA
For the molecule B2, the Km in data set [5] was found to be 5.3 μM μM.

B3: Arabidopsis thaliana APS kinase Apk4 (At5g67520), recombinant, without target peptide (Arabidopsis thaliana) (protein)
chain: SGETKQINGKQKNIVWHDCPVTKSDRQELIKQKGCVIWITGLSGSGKSSLACALSRALHNRGKLSYILDGDNVRHGLNSDLSFEADDRAENIRRVGEVAKLFADSGIICIASLISPYRIERAACRALLPQGDFIEVFMDVPLHVCEARDPKGLYKRARAGKIKGFTGVDDPYEAPLDCEIVIQNSRDKGLSSSSSSSSSPSSSSSSLCEMADIVVSYLDQNGYLKKHSTKSRNCM
Consider B3, for which the Km in data set [5] came out at 2.1 μM μM.

B4: Arabidopsis thaliana APS kinase Apk2 (At4g39940), recombinant, without target peptide (Arabidopsis thaliana) (protein)
chain: AVNVSAQASLTADFPALSETILKEGRNNGKEKAENIVWHESSICRCDRQQLLQQKGCVVWITGLSGSGKSTVACALSKALFERGKLTYTLDGDNVRHGLNRDLTFKAEHRTENIRRIGEVAKLFADVGVICIASLISPYRRDRDACRSLLPDGDFVEVFMDVPLHVCESRDPKGLYKLARAGKIKGFTGIDDPYEAPVNCEVVLKHTGDDESCSPRQMAENIISYLQNKGYLEG
As to B4, in data set [5], the Km is on record as 1.0 μM μM.
